# Binding of CDR-mutated scFvs to a peptide of the spike HR2 region

All variants were tested on one target, the spike HR2 peptide PDVDLGDISGINAS (SARS-CoV-2).

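Phage display of a naive human antibody library on the peptide gave the parent. The variants were designed computationally from a first round of random CDR variants and then made and measured. Several design methods are mixed in this list. AlphaSeq pools MATa yeast showing the antibodies with MATalpha yeast showing the peptide. Mating (16 h, 30 °C) was followed by selection of diploids and sequencing of their barcodes. Read counts were normalised to the haploid input and turned into Kd by a linear fit to BCL2-family pairs of known affinity, for each replicate. Each pool was mated in six replicate cultures.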

The variants keep the heavy chain, the linker and the frameworks of Ab-14 (scFv order VH, a 15-residue (Gly4Ser)3 linker, VL).
VH: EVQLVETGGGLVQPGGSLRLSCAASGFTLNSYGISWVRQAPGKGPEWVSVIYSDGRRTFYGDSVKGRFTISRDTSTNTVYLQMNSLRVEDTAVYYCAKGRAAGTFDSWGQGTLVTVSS
VL: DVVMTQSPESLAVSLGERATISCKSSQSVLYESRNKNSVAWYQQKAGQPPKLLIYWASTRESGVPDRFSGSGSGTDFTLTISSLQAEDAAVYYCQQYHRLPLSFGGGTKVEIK

Changes read parent residue, position, new residue, counted from the first residue of the VL shown. This list holds designs with at most six substitutions. Values are apparent Kd, the geometric mean of the replicates that gave a signal; lower means stronger binding. A pair that was not seen in any replicate is written "nd"; this usually means weak binding, but a binder can also be missed. Background: pairings of all light chain designs with three empty control strains gave a value in 4% of cases (median 430 nM, 5th percentile 38 nM). Values in that range, when seen in few replicates, are hard to tell from nonspecific mating.

The variant S25L S26Q W56N E61L S62W gave 1.0 nM (6 of 6 replicates).
The variant R34K gave 300 nM (6 of 6 replicates).
The variant K24N V29W W56G A57G gave 1.2 nM (6 of 6 replicates).
The variant Q27I V29Y Y31R W56E gave 680 pM (6 of 6 replicates).
The variant Y31D N35C L100S gave 40 nM (1 of 6 replicates).
The variant S25F S26Q V29Q L30E W56H gave 2.0 nM (6 of 6 replicates).
The variant V29Q W56G P101T gave 19 nM (3 of 6 replicates).
The variant K24Y Q27D S28L W56K gave 9.9 nM (4 of 6 replicates).
The variant S25G Q27I V29Y Y31Q W56E gave 1.7 nM (6 of 6 replicates).
The variant S25D A57M E61A gave 150 nM (5 of 6 replicates).
The variant S25L S26E V29M W56N gave 550 pM (6 of 6 replicates).
The variant S25A Q27P V29E L30E W56N gave 3.3 nM (6 of 6 replicates).
The variant S25L S26Q W56S gave 1.6 nM (6 of 6 replicates).
The variant S25L V29E W56N S62M gave 760 pM (6 of 6 replicates).
The variant S25L N37M W56E gave 870 pM (6 of 6 replicates).
The variant S25Q R34A W56D gave 940 pM (6 of 6 replicates).
The variant Q27N N37Y S38Q Y97D gave nd (0 of 6 replicates).
The variant S25L V29M S38N W56N T59Q gave 310 pM (6 of 6 replicates).
The variant S25L V29N W56N E61L gave 1.7 nM (6 of 6 replicates).
The variant K36A W56K gave 4.3 nM (6 of 6 replicates).
The variant S25L N35M W56N E61Y gave 480 pM (6 of 6 replicates).
The variant S25A E32S R34V W56D gave 1.1 nM (6 of 6 replicates).
The variant S25L S26P V29F W56N E61L gave 820 pM (6 of 6 replicates).
The variant E32N gave 350 nM (4 of 6 replicates).
The variant S25F N35G W56M H98I L102A gave nd (0 of 6 replicates).
The variant V29W K36F N37W W56H gave 15 nM (6 of 6 replicates).
The variant S62Q Q96A Y97Q gave 69 nM (1 of 6 replicates).
The variant K24H S25L S33M W56N gave 600 pM (6 of 6 replicates).
The variant K24Y S25F A57I gave nd (0 of 6 replicates).
The variant Q27H L30Y R34T W56E E61V gave 2.0 nM (6 of 6 replicates).
The variant S25W R34H W56H S58T gave 270 nM (6 of 6 replicates).
The variant S25L V29M N37M W56N gave 490 pM (6 of 6 replicates).
The variant S25V N35T W56N Y97A gave 6.2 nM (6 of 6 replicates).
The variant K24L Q27I V29Y R34A W56E gave 2.9 nM (6 of 6 replicates).

Extract of 5 entries:

changes,apparent Kd,replicates with signal
S25A E32S R34V W56D,1.1 nM,6 of 6
S62Q Q96A Y97Q,69 nM,1 of 6
S25F S26Q V29Q L30E W56H,2.0 nM,6 of 6
E32N,350 nM,4 of 6
S25L V29M N37M W56N,490 pM,6 of 6

The authors averaged sequences with at least three values out of six and counted those with two or fewer as poor binders. Of ten entries with the parent sequence, four were seen in most replicates (averages 2.2 nM to 240 nM), three in one and three in none, so single entries are noisy. The range of this assay differs from that of the first round, and the authors advise against merging the two.

Source: Li et al. 2023 (doi:10.1038/s41467-023-39022-2), MIT Lincoln Laboratory and A-Alpha Bio; data file from the FLAb repository.